# This is a sample that favours compounds with a hit; in the whole collection about 2.2% have one here.
# miR-21 reporter: raises the signal of a miR-21 reporter | HeLa miR-21 FLuc reporter, luciferase, 48 h | Potency, µM (doses to about 38.3 µM), without a hit: at the top dose reporter change, positive = more light | 340,000 tested, under 10 active | AID 2288; active = well fitted rising curve with a large enough effect; inconclusive = small, poorly fitted or top-dose-only effect; inactive = no such curve, though single readings can be large or run the other way;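 note: % of control where 0% means no effect; miR-21 action dims this reporter so a rising signal means less miR-21 action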
#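 HeLa cells stably expressing CMV-driven firefly luciferase with a downstream miR-21 binding sequence, endogenously expressing miR-21, were treated with titrations (up to about 40uM final) for 48 hours at 37 degree Celsius. Luciferase luminescence was read after lysis.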
# Nrf2 block: Nrf2 pathway inhibition | Potency, µM (series often up to 46 µM), for the others: top-dose activity change, negative = inhibition, most hits filed as inhibitors | A549 ARE-Fluc reporter, luciferase luminescence, 18-24 h | 360,000 tested, 2.1% active; note: potency is the fitted concentration of half-maximal effect; % is set by controls: 0 for no effect and ±100 for the full control effect; nearly all actives have a fitted effect of over 60% in size
#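 A549 ARE_Fluc cells, 5000/well, 5% FBS OPTI-MEM; compounds in dose-response, 18-24 h at 37 °C/5% CO2; CellTiter-Fluor viability read (Ex 405/Em 525), then BugLite luciferase luminescence = Nrf2 activity.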
# A549 tox-1: A549 cytotoxicity, counter-screen for Nrf2 inhibitors; Potency, µM (top dose mostly 46 µM), for the others: top-dose activity change, negative = cytotoxicity, actives largely listed as inhibitors; A549 ARE-Fluc cells, CellTiter-Fluor viability, 18-24 h; 390,000 tested, 0.16% active; note: potency is the fitted concentration of half-maximal effect; % is set by controls: 0 for no effect and ±100 for the full control effect
#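 Cytotoxicity counterscreen: CellTiter-Fluor fluorescence was measured in A549 ARE_Fluc cells after 18-24 h of compound exposure in a concentration series. The subsequent BugLite luminescent read reports ARE-luciferase activity.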
# PI4K2A inh: inhibitors of human PI4K2A; Q9BTU6; purified PI4K2A, ADP-Glo luminescence, 1 h; hits give low values; activity change, negative = inhibition, % at 76.9 µM; 420,000 tested, 0.13% active; AID 1346378; in the data active = activity change below about -50%; inconclusive = mostly about -30% to -49%;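 note: -100% = wells without enzyme as full effect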
#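 ADP-Glo luminescence measured ADP generated by PI4K2A enzyme (4 ug/mL before mixing) with 1.2 mM PI substrate (pre-mix) and 300 microM ATP (pre-mix). Tris pH7.5 buffer with MgCl2, Triton X-100; 1 h reaction at ambient temperature.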
# GALK inhibitor: inhibitors of human galactokinase; 270,000 tested, 0.007% active; Potency, µM (series often up to 57.5 µM), for the others: at the highest dose activity change, negative = inhibition, hits mostly inhibitors; Purified GALK, Kinase-Glo residual ATP luminescence; note: potency is the fitted concentration of half-maximal effect; % is set by controls: 0 for no effect and ±100 for the full control effect
#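 5 nM enzyme, 35 uM ATP, 100 uM galactose, 20 mM HEPES pH8.0, 5 mM MgCl2; 1 h RT; residual ATP by Kinase-Glo Plus luminescence, qHTS format.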
# Nrf2 activator: Nrf2 pathway activation. AREc32 ARE-luciferase reporter (MCF7-derived line), luminescence, 24 h. Potency, µM (doses to about 46.1 µM), for inactives: at the highest dose activation, actives largely listed as activators. 410,000 tested, 0.31% active; note: potency is the fitted concentration of half-maximal effect; % of control where 0% means no effect; nearly all actives have a fitted effect of over 65% in size
#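 Cells of the AREc32 ARE-luciferase line are plated in OPTI-MEM containing 5% FBS and left overnight at 37 deg C. Compounds are pinned in, incubation continues 24 hr, and firefly luciferase signal is then measured.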
# FLuc enzyme inh: counter-screen for Nrf2 inhibitors: firefly luciferase enzyme inhibition. purified firefly luciferase, luminescence inhibition. shares compounds with Nrf2 block. Potency, µM (series often up to 57.5 µM), inactives show top-dose activity change, negative = inhibition, usual class: inhibitors. 1,400 tested, 4% active; note: potency is the fitted concentration of half-maximal effect; % is set by controls: 0 for no effect and ±100 for the full control effect; nearly all actives have a fitted effect of over 65% in size
# A549 tox-2: A549 cytotoxicity, Nrf2 inhibitor counterscreen. shares compounds with Nrf2 block. A549 ARE-Fluc cells, cytotoxicity counterscreen. Potency, µM (top dose mostly 46.1 µM), inactives show top-dose activity change, negative = cytotoxicity, most hits filed as inhibitors. 1,400 tested, 2% active;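 note: potency is the fitted concentration of half-maximal effect; cells exposed to compounds for 18 to 24 hours; % is set by controls: 0 for no effect and ±100 for the full control effect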
# Nrf2 ARE inh: confirmation of Nrf2 inhibitors in A549 ARE reporter cells | shares compounds with Nrf2 block | A549 ARE-firefly luciferase reporter, luminescence | Potency, µM (series often up to 46.1 µM), for inactives: at the top dose activity change, negative = inhibition, actives largely listed as inhibitors | 1,400 tested, 74% active; note: potency is the fitted concentration of half-maximal effect; % is set by controls: 0 for no effect and ±100 for the full control effect; nearly all actives have a fitted effect of over 65% in size
# * hit, by the source's call; ? = inconclusive; / = no result given; ! = not active in a repeat. Unless noted, calls come from the whole dose curve; as a rule, active = well fitted curve in the direction sought with a large enough effect; inconclusive = small, poorly fitted or top-dose-only effect, or another doubt; inactive = no such curve, though single readings can be large; an effect the other way counts as inactive or inconclusive.
1	O=C(c1cc(S(=O)(=O)N2CCN(c3ccccc3)CC2)ccc1Cl)N1CCCC(C(F)(F)F)C1 (stereo unspecified)
2	COC(=O)c1c(C)oc2ccc(N(C(C)=O)S(=O)(=O)c3ccccc3)cc12
3	COC(=O)c1c(C)oc2ccc(N(C(=O)Oc3ccccc3)S(=O)(=O)c3ccc(C(C)(C)C)cc3)cc12
4	CCOc1ccc(S(=O)(=O)N(C(C)=O)c2ccc3oc(C)c(C(=O)OC)c3c2)cc1
5	CC1(C)CC2CC(C)(CN2S(=O)(=O)c2ccc(C(=O)Nc3ccc(Cl)c(S(=O)(=O)N4CCOCC4)c3)cc2)C1 (stereo unspecified)
6	CC1(C)CC2CC(C)(CN2S(=O)(=O)c2ccc(C(=O)Nc3ccc(S(=O)(=O)N4CCOCC4)cc3)cc2)C1 (stereo unspecified)
7	CC(=O)Nc1ccc(S(=O)(=O)N2CC3(C)CC2CC(C)(C)C3)cc1 (stereo unspecified)
8	CCN(CC)C(=O)O[C@H]1CC[C@@]23CCCN2C(=O)CCC[C@H]3C1

compound no.	1	2	3	4	5	6	7	8
miR-21 reporter	/	7%	11%	29%	?	20%	-5%	/
Nrf2 block	4.6µM*	?	2.3µM*	2.1µM*	5.2µM*	1.5µM*	0%	/
A549 tox-1	-14%	?	-2%	-12%	-11%	?	-6%	/
PI4K2A inh	3	-2	0	2	-2	1	-4	-3
GALK inhibitor	/	0%	/	/	-1%	0%	-2%	/
Nrf2 activator	0%	4%	0%	-2%	1%	1%	1%	/
FLuc enzyme inh	2%	/	2%	0%	-1%	0%	/	/
A549 tox-2	-1%	/	-4%	-20%	-11%	2%	/	/
Nrf2 ARE inh	5.2µM*	/	5.2µM*	23µM*	7.3µM*	4.1µM*	/	/

9	CC(C)c1cc(C(C)C)c(S(=O)(=O)N2CCC(C(=O)NCC3COCCO3)CC2)c(C(C)C)c1 (stereo unspecified)
10	CCn1c(SCC(=O)Nc2cccc(OC)c2)nc2ccccc2c1=O
11	CCOC(=O)c1cccc(NC(=O)CSc2nc3ccccc3c(=O)n2CC)c1
12	O=C(Nc1ccc2nc(SCCOc3ccccc3Cl)sc2c1)c1cccs1
13	COc1cccc(-c2nnc3n2N=C(C(C)(C)C)CS3)c1
14	O=C(Nc1ccc(C(=O)NC2CCCCC2)cc1)c1cccnc1
15	COC(=O)[C@]12C[C@H](CC(=O)NCc3ccc(C)o3)C(=O)N(CCc3ccc(OC)c(OC)c3)C1=C[C@H](COCc1ccccc1)O[C@@H]2C
16	Cc1c[nH]c2cccc(-c3cccc4ccccc34)c12

compound no.	9	10	11	12	13	14	15	16
miR-21 reporter	/	1%	-5%	13%	?	-3%	/	/
Nrf2 block	/	8.2µM*	?	9.2µM*	7.3µM*	?	/	/
A549 tox-1	/	-10%	-3%	0%	-27%	3%	/	/
PI4K2A inh	5	1	7	2	5	-19	0	-1
GALK inhibitor	/	-7%	3%	/	-3%	-1%	/	/
Nrf2 activator	/	6%	0%	2%	-1%	-1%	/	/
FLuc enzyme inh	/	-4%	/	-18%	-2%	-3%	/	/
A549 tox-2	/	0%	/	-3%	?	-3%	/	/
Nrf2 ARE inh	/	38%	/	8.2µM*	/	?	/	/

# Quoted at random: 2 entries already listed
11	CCOC(=O)c1cccc(NC(=O)CSc2nc3ccccc3c(=O)n2CC)c1
10	CCn1c(SCC(=O)Nc2cccc(OC)c2)nc2ccccc2c1=O

compound no.	11	10
miR-21 reporter	-5%	1%
Nrf2 block	?	8.2µM*
A549 tox-1	-3%	-10%
PI4K2A inh	7	1
GALK inhibitor	3%	-7%
Nrf2 activator	0%	6%
FLuc enzyme inh	/	-4%
A549 tox-2	/	0%
Nrf2 ARE inh	/	38%

# Later entries
17	COc1ccc(C2C3=C(CC(C)(C)CC3=O)Oc3ncn(Cc4ccco4)c(=N)c32)cc1 (stereo unspecified)
18	COc1ccc(C2C3=C(CC(C)(C)CC3=O)Oc3ncn(CC(C)C)c(=N)c32)cc1 (stereo unspecified)
19	CC1(C)CC(N2CCOCC2)=CC(=[N+]2CCOCC2)C1
20	CC1(C)CC(N2CCCCC2)=CC(=[N+]2CCCCC2)C1
21	CN(C)NC1=CC(=[N+]2CCCC2)CC(C)(C)C1
22	CCCN(CCC)C1=CC(=[N+]2CCCC2)CC(C)(C)C1
23	N#CCC[C@H]1CC[C@]2(CCCN(S(=O)(=O)c3ccccc3)C2)O1
24	O=C(Nc1cc(S(=O)(=O)N2CCOCC2)ccc1N1CCCC1)c1cc2c(s1)CCCC2

compound no.	17	18	19	20	21	22	23	24
miR-21 reporter	-11%	9%	-1%	?	-4%	?	/	/
Nrf2 block	9.2µM*	7%	-6%	2.3µM*	-14%	2.1µM*	/	/
A549 tox-1	?	-7%	-7%	-21%	3%	-17%	/	/
PI4K2A inh	-12	-8	-1	-2	-1	-1	2	-2
GALK inhibitor	2%	0%	9%	-3%	-2%	0%	/	/
Nrf2 activator	9%	2%	-1%	0%	0%	2%	/	/
FLuc enzyme inh	3%	/	/	2%	/	0%	/	/
A549 tox-2	-9%	/	/	-13%	/	-10%	/	/
Nrf2 ARE inh	9%	/	/	9.2µM*	/	4.6µM*	/	/

25	c1ccc2c(N=NN3CCCCC3)ccnc2c1
26	CN1[C@@H](Cc2ccccc2)COc2cccc(F)c2S1(=O)=O
27	COc1cc(-n2c(C)nc3cc(C(=O)N4CCCC4)ccc32)cc(OC)c1OC
28	O=C(Nc1ccc2c(c1)OCCO2)c1cccc2nc3ccccc3nc12
29	COc1ccc(S(=O)(=O)N2CCC(c3nc4ccccc4o3)CC2)c(OC)c1
30	COc1cc(OC)c(/C=C/c2cc3c4ccccc4ccc3[n+](C)c2)c(OC)c1
31	COc1cc(OC)c(/C=C/c2c3ccccc3cc[n+]2C)c(OC)c1
32	COc1ccc(C(=O)C[n+]2ccc3ccccc3c2C)cc1

compound no.	25	26	27	28	29	30	31	32
miR-21 reporter	/	/	/	3%	/	/	/	-26%
Nrf2 block	/	/	/	2.6µM*	/	/	/	?
A549 tox-1	/	/	/	21µM*	/	/	/	-15%
PI4K2A inh	/	3	-3	-1	-5	/	/	3
GALK inhibitor	/	/	/	1%	/	/	/	0%
Nrf2 activator	/	/	/	0%	/	/	/	9%
FLuc enzyme inh	-24%	/	/	?	/	6.7µM*	1%	/
A549 tox-2	-24%	/	/	12µM*	/	-15%	?	/
Nrf2 ARE inh	5.8µM*	/	/	/	/	4.6µM*	2.1µM*	/

# Entries shown so far containing a thiophene ring, fused or not:
12	O=C(Nc1ccc2nc(SCCOc3ccccc3Cl)sc2c1)c1cccs1
24	O=C(Nc1cc(S(=O)(=O)N2CCOCC2)ccc1N1CCCC1)c1cc2c(s1)CCCC2

compound no.	12	24
miR-21 reporter	13%	/
Nrf2 block	9.2µM*	/
A549 tox-1	0%	/
PI4K2A inh	2	-2
GALK inhibitor	/	/
Nrf2 activator	2%	/
FLuc enzyme inh	-18%	/
A549 tox-2	-3%	/
Nrf2 ARE inh	8.2µM*	/

# Additional entries follow.
33	COc1ccc(N=Cc2c(OC)ccc3ccccc23)cc1
34	CC(C)(C)c1cc(CCC(=O)NNC(=S)NC(=O)c2ccccc2)cc(C(C)(C)C)c1O
35	OCC1OC(n2cnc3c(NCc4ccco4)ncnc32)C(O)C1O (stereo unspecified)
36	C=CCNc1ncnc2c1ncn2C1OC(CO)C(O)C1O (stereo unspecified)

compound no.	33	34	35	36
miR-21 reporter	/	21%	/	-15%
Nrf2 block	1%	2.9µM*	7.3µM*!	?
A549 tox-1	-1%	?	?	-11%
PI4K2A inh	1	3	5	-3
GALK inhibitor	/	0%	/	4%
Nrf2 activator	3%	-1%	?	-1%
FLuc enzyme inh	/	1%	3%	/
A549 tox-2	/	-9%	-21%	/
Nrf2 ARE inh	/	15µM*	4.1µM*	/

# Screens deposited in PubChem BioAssay by National Center for Advancing Translational Sciences (NCATS).
